The list shows a part of the results, in another mix than the full data. Results filed as inconclusive are left out. Calls of active or inactive are those of the source. Rule for the calls, unless noted: active = hit-call score of the fitted dose curve at least 0.9, where 1 is the maximum; inconclusive = response in the unintended direction; inactive = score below 0.9.
What was measured:
[1] = target: Estrogen receptor (Homo sapiens) (UniProt P03372); test: CCTE_Deisenroth_AIME_384WELL_LUC_Active: CCTE's 384-well Estrogen Receptor Transactivation Assay with AIME metabolic competence (ERTA luciferase; metabolism positive), Deisenroth Lab (AID 2284030)
Method in brief: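 In this metabolism-positive format, a 2-hour exposure to alginate-immobilized rat S9 precedes a 24 hour luciferase transactivation readout in VM7Luc4E2 cells. Dosing spans 10 concentrations from 0.002 to 200 uM.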

By UniProt entry, the sequences of proteins in these tests, tags left out.
UniProt P03372, whole entry: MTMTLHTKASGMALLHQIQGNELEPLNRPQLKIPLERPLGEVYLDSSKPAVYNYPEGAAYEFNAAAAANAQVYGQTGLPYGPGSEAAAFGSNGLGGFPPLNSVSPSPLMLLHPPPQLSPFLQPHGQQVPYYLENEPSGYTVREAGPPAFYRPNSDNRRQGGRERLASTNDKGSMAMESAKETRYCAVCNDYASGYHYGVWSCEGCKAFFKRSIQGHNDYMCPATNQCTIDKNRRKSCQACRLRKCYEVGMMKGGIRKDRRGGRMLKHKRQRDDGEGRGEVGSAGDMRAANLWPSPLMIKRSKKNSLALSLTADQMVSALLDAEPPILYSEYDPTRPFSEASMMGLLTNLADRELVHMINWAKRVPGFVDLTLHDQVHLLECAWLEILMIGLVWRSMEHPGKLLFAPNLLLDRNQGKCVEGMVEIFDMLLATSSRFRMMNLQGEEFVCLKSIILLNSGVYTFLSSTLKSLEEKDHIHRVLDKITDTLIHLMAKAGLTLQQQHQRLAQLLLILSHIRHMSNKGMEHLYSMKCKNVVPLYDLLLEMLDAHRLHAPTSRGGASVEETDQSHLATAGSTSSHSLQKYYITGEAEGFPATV

[2] = target: Estrogen receptor (Homo sapiens) (UniProt P03372); test: CCTE_Deisenroth_AIME_384WELL_LUC_Inactive: CCTE's 384-well Estrogen Receptor Transactivation Assay without AIME metabolic competence (ERTA luciferase; metabolism negative), Deisenroth Lab (AID 2284038);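 note: VM7Luc4E2 breast cells given medium preincubated 2 h with S9-free microspheres; hits raise estrogen receptor luciferase signal so potencies reflect agonists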
Method in brief: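 VM7Luc4E2 ER transactivation, luciferase bioluminescence after 24 h, using medium pre-incubated 2 h with S9-free alginate microspheres. Concentrations 0.002–200 uM; gain of signal fitted relative to 17beta-estradiol.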

[3] = target: Estrogen receptor (Homo sapiens) (UniProt P03372); test: CCTE_Deisenroth_AIME_384WELL_LUC_Shift: CCTE's 384-well Estrogen Receptor Transactivation Assay with AIME metabolic competence data shift (ERTA luciferase; difference in metabolism positive and negative), Deisenroth Lab (AID 2284041; active = hit-call score of the fitted dose curve at least 0.9, where 1 is the maximum; inactive = score below 0.9;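 note: shift is response with S9 minus without S9 so positive means metabolism raised ER signal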)
Method in brief: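 Chemicals (0.002–200 uM, 10 points) pre-incubated 2 h with alginate-encapsulated induced male Sprague Dawley rat liver S9 or S9-free, then medium applied 24 h to VM7Luc4E2 cells; luciferase. Endpoint is per-concentration difference, S9-positive minus negative.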

[4] = CCTE_Shafer_MEA_acute_cross_correlation_HWHM: CCTE's Neural Acute Assay for Cross Correlation at Half Width at Half Maximum, Shafer Lab (AID 2284026; active = hit-call score of the fitted dose curve at least 0.9, where 1 is the maximum; inactive = score below 0.9;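 note: percent change per well from pre-dose baseline in spike cross-correlogram half width; hits are a decrease in cross-correlogram half width relative to DMSO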)
Method in brief: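 Primary cortex (rat), MEA, DIV 13/15; compound 0.03-40 uM; 40 min pre + 40 min post at 37 C; spike threshold 8x rms; wells need ≥10 active electrodes; endpoint = % change in cross-correlogram HWHM vs baseline, DMSO negative control.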

[5] = CCTE_Shafer_MEA_acute_synchrony_index: CCTE's Neural Acute Assay for Synchrony, Shafer Lab (AID 2284027; active = hit-call score of the fitted dose curve at least 0.9, where 1 is the maximum; inactive = score below 0.9;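 note: fitted for loss of signal so actives lower synchrony relative to DMSO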)
Experimental: CCTE_Shafer_MEA_acute assay is conducted using Axion Biosystems 48 well microelectrode array (MEA) plates and Maestro recording system. Each well of the MEA plate contains a grid of 16 microelectrodes embedded in the culture surface. Electrically active cells, such as neurons, can be cultured over the electrodes, and electrical activity in these cells can be recorded extracellularly. The spontaneous firing of neurons is captured from each electrode on a microsecond timescale providing both temporally and spatially precise data. […] The CCTE_Shafer_MEA_acute assay uses primary cultures of rat cortical neurons. […] The recordings before and after chemical treatment are used to calculate a percent change in the synchrony index in each well.Data from the assay component CCTE_Shafer_MEA_acute_synchrony_index was analyzed into 1 assay endpoint. This assay endpoint, CCTE_Shafer_MEA_acute_synchrony_index, was analyzed in the negative analysis fitting direction relative to DMSO as the negative control and baseline of activity. […]
Spontaneous activity in the cortical cultures was recorded using an Axion Biosystems Maestro 768 channel amplifier and Axion Integrated Studios (AxIS) v1.8 (or later) software. […] Any electrodes with rms noise levels greater than 5 uV were grounded (e.g., no data were recorded). […] Baseline activity (40 min) was recorded before the addition of each compound. […]

[6] = CCTE_Deisenroth_AIME_384WELL_CTox_Active: Cytotoxicity Assessment (CTOX) in CCTE's 384-well Estrogen Receptor Transactivation Assay with AIME metabolic competence (metabolism positive), Deisenroth Lab (AID 2284037);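 note: chemicals first conditioned 2 h by alginate-bound induced rat liver S9 before cells; activity means signal loss indicating cell death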
Experimental: (§1) CCTE_Deisenroth_AIME_384WELL (AIME metabolism assay) is a cell-based, single-readout assay that uses VM7Luc4E2, a human mammary gland/breast cell line, with measurements taken at 24 hour after chemical dosing in a 384-well plate.CCTE_Deisenroth_AIME_384WELL_CTox_Active is one of four assay components measured or calculated from the CCTE_Deisenroth_AIME_384WELL assay. It is designed to make measurements of a protease substrate, a type of viability indicator, as detected with substrate cleavage to a fluorescent probe in living cells.CCTE_Deisenroth_AIME_384WELL_CTox_Active is a component of the CCTE_Deisenroth_AIME_384WELL assay that measures the effect of retroftting the VM7Luc ERTA assay with the Alginate Immobolization of Metabolic Enzymes (AIME) metabolism method. AIME is optimized to impart phase I hepatic metabolism using phenobarbital/beta-naphthoflavone induced hepatic S9 from male Sprague Dawley rats. Parent chemicals are incubated for 2 hours in the AIME assay prior to transfer to the VM7Luc ERTA assay plate. […] This endpoint evaluates cytotoxicity in metabolism positive mode. Using a type of flourescent probe in VM7Luc cells, loss-of-signal activity can be used to understand loss of viability. This assay endpoint, CCTE_Deisenroth_AIME_384WELL_CTox_Active, was analyzed with bidirectional fitting in the ERTA assay.
(§2) The AIME procedure consists of a preparative "pre-stamping" step using a barium chloride/poly-L-lysine (PLL) solution followed by "stamping" the lid in alginate-hepatic S9 (metabolism positive) or alginate-water (metabolism negative) to form microspheres. Once stamping is completed, the AIME lids are placed in duplicate microplates (metabolism positive or negative) containing chemical solutions and incubated for two hours to facilitate metabolic reactions. The conditioned medium, containing parent chemical or metabolites, is then transferred to the cell-based VM7Luc Estrogen Receptor Transactivation Assay (ERTA) for 24 hours. A typical experimental design tests a 10-point concentration series (0.002 - 200 uM) for 8 compounds (96-well format) (Deisenroth 2020) or 32 compounds (384-well format) (Hopperstad 2022) in single technical replicate. AIME assay controls include trans-stilbene (bioactivated control) and ethylparaben (bioinactivated control). ERTA assay plate controls include 17-beta estradiol (positive control) and DMSO (solvent control). Experiments typically comprise a minimum of four experimental replicates (n=4).

[7] = CCTE_Deisenroth_AIME_384WELL_CTox_Inactive: Cytotoxicity Assessment (CTOX) in CCTE's 384-well Estrogen Receptor Transactivation Assay without AIME metabolic competence (metabolism negative), Deisenroth Lab (AID 2284039);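 note: cell viability via live-cell protease substrate cleaved to fluorescent probe; cells exposed 24 h to medium preincubated 2 h with alginate-water beads without S9; loss of fluorescence signal means loss of viability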
Experimental: as §1, with “plate.CCTE_Deisenroth_AIME_384WELL_CTox_Inactive” for “plate.CCTE_Deisenroth_AIME_384WELL_CTox_Active”, “cells.CCTE_Deisenroth_AIME_384WELL_CTox_Inactive” for “cells.CCTE_Deisenroth_AIME_384WELL_CTox_Active”, “negative” for “positive”, “CCTE_Deisenroth_AIME_384WELL_CTox_Inactive,” for “CCTE_Deisenroth_AIME_384WELL_CTox_Active,”
as §2, with “format)1” for “format) (Deisenroth 2020)”, “format)2” for “format) (Hopperstad 2022)”

[8] = system: DIO2 (gene 1734); test: CCTE_GLTED_hDIO2: CCTE's human Deiodinase 2 (DIO2) Inhibition Assay, Great Lakes Toxicology and Ecology Division (GLTED) Lab (AID 2284050)
Experimental: CCTE_GLTED_hDIO2 is a cell-free, single-readout assay designed to test the inhibitory activity of chemicals toward human iodothyronine Deiodinase type 2 (DIO2) enzyme. Enzyme is incubated in presence of test chemical for 3 hours during which uninhibited enzyme liberates free iodide from substrate. Free iodide is measured in a second step using the Sandell-Kolthoff method.CCTE_GLTED_hDIO2 is the assay component measured from the CCTE_GLTED_hDIO2 assay. It is designed to make measurements of enzyme activity, a form of enzyme reporter, as detected with absorbance signals by spectrophotometry.Data from the assay component CCTE_GLTED_hDIO2 was analyzed into 1 assay endpoint. This assay endpoint, CCTE_GLTED_hDIO2, was analyzed in the positive analysis fitting direction relative to DMSO as the negative control and baseline of activity. […] Furthermore, this assay endpoint can be referred to as a primary readout, because the performed assay has only produced 1 assay endpoint. […]
Human deiodinase type 2 (hDIO2) assay, developed at Great Lakes Toxicology and Ecology Division (GLTED) within the EPA's Center for Computational Toxicology and Exposure (CCTE), is designed to test the chemicals' ability to inhibit DIO2. Assay is based on iodide release measured by the Sandell-Kolthoff method and is run in 96-well plate format with assay plates run in triplicate (n=3). […]

[9] = system: DIO3 (gene 1735); test: CCTE_GLTED_hDIO3: CCTE's human Deiodinase 3 (DIO3) Inhibition Assay, Great Lakes Toxicology and Ecology Division (GLTED) Lab (AID 2284055);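 note: potency is for inhibition seen as loss of released iodide signal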
Method in brief: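 Human type 3 deiodinase, expressed via adenovirus system, was exposed to test chemicals for 3 hours in a cell-free format. Released iodide was then determined spectrophotometrically by Sandell-Kolthoff; plates ran in triplicate.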

[10] = CCTE_Shafer_MEA_acute_LDH: CCTE's Lactate Dehydrogenase Assay for Cytotoxicity in the Neural Acute Assay, Shafer Lab (AID 2284086);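 note: active means LDH release rises above DMSO vehicle level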
Method in brief: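 Medium collected from MEA wells of primary rat cortical cultures (DIV 13 or 15) immediately after 40 min chemical exposure is assayed spectrophotometrically for lactate dehydrogenase activity. Endpoint fitted in positive direction versus DMSO.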

Measured: AC50

O=[N+]([O-])OCC(CO[N+](=O)[O-])(CO[N+](=O)[O-])CO[N+](=O)[O-]
inactive: [1] | [2] | [3]

O=[N+]([O-])c1cccc([N+](=O)[O-])c1
not listed: [8] | [9] | [10]
inactive: all other assays above

Cc1cccc([N+](=O)[O-])c1[N+](=O)[O-]
active: [8] 31.5 µM | [9] 26 µM

Cc1ccc([N+](=O)[O-])cc1[N+](=O)[O-]
inactive: [6] | [7]

Cc1c([N+](=O)[O-])cccc1[N+](=O)[O-]
inactive: [6] | [7]

COP(C)(=O)OC
inactive: [1] | [6] | [2] | [7] | [3]

CC(C)OP(C)(=O)OC(C)C
not listed: [8] | [9]
inactive: all other assays above

Reference: PubChem BioAssay (EPA / NIEHS)
